Results: patent publication US20230096602A1, “TETRAHYDROCYCLOPENTA[B]INDOLE COMPOUNDS FOR TREATMENT OF RENAL DISEASE” (Eirgen Pharma Ltd., priority 2020, published 2023)

Assays:
[1] = test system: male subjects with LUTS secondary to BPH; assay: Study SAR-202 phase 2, 16 weeks; format: in vivo, human
rat prostate = assay: Rat toxicology: prostate weight and atrophy
dog prostate = assay: Dog toxicology: prostate weight and atrophy
[2] = test system: orchidectomized (ORX) rats; assay: Bone effects in osteopenic ORX rat model; format: in vivo
[3] = test system: patients with ED who had an incomplete response to tadalafil; assay: Study GPEC phase 2, 12 weeks
Excerpt: The Phase 2 Study for ED also included exploratory measures for lower extremity muscle strength and power, LBM and fat mass.

healthy subjects = assay: Study GPBC multiple-dose 28 days; format: in vivo, human
[4] = 5 mg + 5 mg tadalafil vs 10 mg tadalafil, 12 weeks

SMILES: CC(C)OC(=O)N[C@H]1Cc2c(n(Cc3ccccn3)c3ccc(C#N)cc23)C1 [compound of Formula II, (S)-(7-cyano-4-pyridin-2-ylmethyl-1,2,3,4-tetrahydro-cyclopenta[b]indol-2-yl)-carbamic acid isopropyl ester]
- Change in Prostate Specific Antigen (week 16 to baseline) ([1]; 15 mg): did not change
- Change in Prostate Specific Antigen (week 16 to baseline) ([1]; 25 mg): significantly decreased
- Prostate atrophy (no affect/no examined) (rat prostate; 1 month, 15 mg/kg/day): “”
- Prostate atrophy (no affect/no examined) (rat prostate; 1 month, 150 mg/kg/day): “”
- Prostate atrophy (no affect/no examined) (rat prostate; 1 month, 1500 mg/kg/day): “”
- Prostate atrophy (no affect/no examined) (rat prostate; 3 months, 3 mg/kg/day): “”
- Prostate atrophy (no affect/no examined) (rat prostate; 3 months, 30 mg/kg/day): “”
- Prostate atrophy (no affect/no examined) (rat prostate; 3 months, 1000 mg/kg/day): “”
- Prostate atrophy (no affect/no examined) (rat prostate; 6 months, 15 mg/kg/day): “”
- Prostate atrophy (no affect/no examined) (rat prostate; 6 months, 1500 mg/kg/day): 4/15
- Prostate atrophy (no affect/no examined) (dog prostate; 1 month, 3 mg/kg/day): “”
- Prostate atrophy (no affect/no examined) (dog prostate; 1 month, 30 mg/kg/day): “”
- Prostate atrophy (no affect/no examined) (dog prostate; 1 month, 150 mg/kg/day): 1/4
- Prostate atrophy (no affect/no examined) (dog prostate; 6 months, 3 mg/kg/day): 4/4
- Prostate atrophy (no affect/no examined) (dog prostate; 6 months, 30 mg/kg/day): 4/4
- Prostate atrophy (no affect/no examined) (dog prostate; 6 months, 150 mg/kg/day): 4/4
- Prostate atrophy (no affect/no examined) (dog prostate; 12 months, 3 mg/kg/day): 2/4
- Prostate atrophy (no affect/no examined) (dog prostate; 12 months, 10 mg/kg/day): 3/4
- Prostate atrophy (no affect/no examined) (dog prostate; 12 months, 100 mg/kg/day): 4/4
- bone anabolic biomarkers P1NP and periosteal alkaline phosphatase ([2]; after 2 and 8 weeks of treatment): significant increase
- vertebral bone mineral content (BMC), cross-sectional area, and bone mineral density (BMD) ([2]; daily oral administration): dose-dependent increase
- LBM [3, 4]: increase (improvement)
- Lower extremity muscle power (stair climb) [3, 4]: increased (improved)
- fat body mass [3, 4]: reduction
- testosterone ([3]; 12-week study in elderly men): clinically meaningful decrease
- LBM and calf area (by CT) (healthy subjects): clinically and statistically significant increases
